Results as given in ChEMBL document CHEMBL1128257, “Chemically stable N-methyl-4-(alkylthio)cyclophosphamide derivatives as prodrugs of 4-hydroxycyclophosphamide” (J Med Chem, 1995).

Tests used:
[1] = tested on: DMS-273; test: cytotoxicity against small cell lung cancer subpanel (DMS 273); conditions: Homo sapiens
[2] = tested on: SR; test: cytotoxicity against leukemia subpanel (SR); conditions: Homo sapiens
[3] = MGDH represents the selectivity or relative sensitivity of the tumor cell panel to the drug.
[4] = tested on: RPMI-8226; test: cytotoxicity against leukemia subpanel (RPMI-8226); conditions: Homo sapiens
[5] = tested on: K562; test: cytotoxicity against leukemia subpanel (K562); conditions: Homo sapiens
[6] = tested on: DMS-114; test: cytotoxicity against small cell lung cancer subpanel (DMS 114); conditions: Homo sapiens
[7] = tested on: HL-60; test: cytotoxicity against leukemia subpanel (HL-60 (TB)); conditions: Homo sapiens
[8] = tested on: MOLT-4; test: cytotoxicity against leukemia subpanel (MOLT-4); conditions: Homo sapiens
[9] = tested on: CCRF-CEM; test: cytotoxicity against leukemia subpanel (CCRF-CEM); conditions: Homo sapiens

Compound: CCCSC1CCOP(=O)(N(CCCl)CCCl)N1C (centres undefined)
- GI50 [1]: > 100 µM
- GI50 [2]: 47.9 µM
- MGDH GI50 [3]: 54.5
- GI50 [4]: 79.4 µM
- GI50 [5]: 49 µM
- GI50 [6]: 43.7 µM
- GI50 [7]: 17.8 µM
- GI50 [8]: > 100 µM
- GI50 [9]: > 100 µM
